Measurements reported in US10065963B2 (Incyte Corporation, priority 2015, dated 2018).

By UniProt entry, the sequences of proteins in these tests, tags left out. Where a name states a change or a piece, a line headed by the entry shows the natural chain unless it says otherwise.
UniProt O00329: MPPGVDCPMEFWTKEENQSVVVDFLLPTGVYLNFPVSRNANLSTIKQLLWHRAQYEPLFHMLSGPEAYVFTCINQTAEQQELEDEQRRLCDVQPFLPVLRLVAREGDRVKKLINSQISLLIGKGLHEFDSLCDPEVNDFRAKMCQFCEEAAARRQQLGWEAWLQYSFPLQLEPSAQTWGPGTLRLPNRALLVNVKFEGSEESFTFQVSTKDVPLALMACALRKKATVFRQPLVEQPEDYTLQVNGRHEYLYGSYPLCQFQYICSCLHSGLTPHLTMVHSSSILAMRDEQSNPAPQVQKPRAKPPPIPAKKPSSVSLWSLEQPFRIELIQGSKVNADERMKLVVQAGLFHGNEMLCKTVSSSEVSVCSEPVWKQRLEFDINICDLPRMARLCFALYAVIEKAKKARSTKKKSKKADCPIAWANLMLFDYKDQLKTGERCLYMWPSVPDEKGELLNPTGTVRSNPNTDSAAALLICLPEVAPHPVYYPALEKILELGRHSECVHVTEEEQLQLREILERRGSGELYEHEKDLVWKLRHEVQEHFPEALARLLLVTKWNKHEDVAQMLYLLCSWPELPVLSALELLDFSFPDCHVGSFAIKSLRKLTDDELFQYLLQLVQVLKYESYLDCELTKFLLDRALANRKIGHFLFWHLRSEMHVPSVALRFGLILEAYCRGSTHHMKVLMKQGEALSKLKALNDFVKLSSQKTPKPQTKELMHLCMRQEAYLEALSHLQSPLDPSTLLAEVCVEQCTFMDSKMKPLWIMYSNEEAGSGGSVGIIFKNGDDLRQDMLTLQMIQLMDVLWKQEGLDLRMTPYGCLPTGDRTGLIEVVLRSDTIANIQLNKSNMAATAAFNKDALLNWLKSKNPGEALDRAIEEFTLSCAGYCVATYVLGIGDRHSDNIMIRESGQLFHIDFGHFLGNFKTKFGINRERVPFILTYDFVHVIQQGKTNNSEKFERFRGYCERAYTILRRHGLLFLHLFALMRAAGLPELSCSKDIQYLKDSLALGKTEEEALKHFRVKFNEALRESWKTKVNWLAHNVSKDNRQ

Target: PI3Kδ (p110δ/p85α) Recombinant Human Protein (Homo sapiens (Human), UniProt O00329)
Assay: PI3Kδ scintillation proximity assay
Format: biochemical
Details: Table B, Assay C

IC50: < 50 nM
Structure (SMILES): CC(Nc1ncnc2[nH]cnc12)c1cc(Cl)c2ccnnc2c1-c1cccc(F)c1 (single isomer, unassigned) [Example 33, N-{1-[5-chloro-8-(3-fluorophenyl)cinnolin-7-yl]ethyl}-9H-purin-6-amine]
